Results from patent publication US5374618A, “Calcitonin peptides, and gene related pharmaceutical compositions” (Celltech Limited, priority 1983, dated 1994).

Key:
[1] = test system: pentobarbitone anaesthetised rat; assay: Cardiovascular actions (mean arterial pressure, heart rate) after i.v. administration in anaesthetised rats; format: in vivo
Protocol: Groups of 4 to 6 male Sprague-Dawley rats (285-315 g) were anaesthetised with sodium pentobarbitone (60 mg Kg^-1 i.p.). The trachea, left carotid artery and left jugular vein were cannulated. Blood pressure was recorded from the carotid artery on a Grass polygraph via a Statham P23 ID pressure transducer and mean arterial pressure derived from the trace. Heart rate was measured by a tachograph (Grass model 7P4) triggered by the blood pressure signal. Human CGRP was obtained either crude off the resin, then purified, or latterly in a purified form from Peninsula Laboratories. Purified rat CGRP was from the same source. All synthetic preparations were subject to mass spectrometry (M-Scan Ltd.) to confirm structure and purity before use. Human CGRP, rat CGRP, propranolol hydrochloride (Sigma), mepyramine maleate (Sigma), cimetidine hydrochloride (SK & F), histamine diphosphate (Sigma) were dissolved in 0.9% w/v saline. All compounds were administered intravenously except for mepyramine (s.c.). Saline, human CGRP (o) and rat CGRP (Δ) were administered cumulatively in volumes of 0.1 ml per rat at 2 min intervals. The peak fall in mean arterial pressure (MAP) and heart rate (HR) after 2 min was measured.
In the pentobarbitone anaesthetised rat, intravenous human CGRP evoked a rapid dose-related fall in blood pressure, maximal within 1 min, and representing a 50% decrease in blood pressure at a dose of 0.28 nmol Kg^-1. […] Since a fall in blood pressure may be evoked indirectly by basic peptides through the release of histamine (Goth, A. (1973) In Histamine and antihistamines (Ed. Schachter, M.) Vol. I. Int. Encyclopedia of Pharmacology and Therapeutics, Section 74, 25-43 Pergamon Press, Oxford), and human CGRP is a relatively basic peptide, we have examined the effect of pretreatment with the histamine H1 -receptor antagonist mepyramine and the histamine H2 -receptor antagonist cimetidine prior to human CGRP administration. […] We have investigated this possibility by i.v. administration of human CGRP after pretreatment with the β-adrenoceptor antagonist propranolol (in a dose sufficient to shift an isoprenaline dose-response curve to the right by 2 log units). […] The duration of the response to human CGRP was measured following administration of a single dose. Human CGRP 1 nmol. […]. […] Whilst 10 ug/kilo PDA-4 caused a drop in mean arterial pressure of 15-20 mm Hg and an increase in heart beat rate of 15-20 bpm. The mechanism of action of PDA-4 was not examined.

[2] = test system: guinea-pig right atrial preparation; assay: Rate and force of contraction of isolated guinea-pig right atrium; format: cell-based
Protocol: Male Dunkin Hartley guinea-pigs (280-400 g) were killed by cervical dislocation and exsanguinated. The heart was removed, the right atrium dissected out and mounted under 0.5 g tension in Krebs solution (mM): NaCl 118, KCl 4.7, CaCl2 2.5, KH2 PO4 1.18, NaHCO3 25, MgSO4 1.18 and glucose 11.1, at 34° C. bubbled with 95:5 02 :CO2. Atrial force and rate were measured isometrically by a Grass FT.03 transducer and recorded on a Grass polygraph. Single doses of either human or rat CGRP were given in a random order.

[3] = test system: antibody raised against Tyr-(CGRP amino acids 25-37)-amide; assay: Radioimmunoassay cross-reactivity with 125I-Tyr-(CGRP amino acids 25-37)-amide tracer; format: binding, rabbit; settings: 1:12500 dilution of serum, 1800 cpm tracer, 400 μl assay
Protocol: Evidence that the fusion protein produced, contains CGRP protein sequence was determined by radioimmunoassay of HB101/pCAT-CGRP cell extracts. Cells from a 500 ml culture were harvested and lysed in a lysozyme/sodium deoxycholate mixture (5 ml), then treated with DNase for 30 mins. at 5° C. (Emtage J. S. et al PNAS (1983), 80, p 3671-3675). An equal volume of 0.1M Tris HCl pH 8.0, 0.1 mM EDTA, 5% (v/v) glycol, was then added, and the presence of human CGRP sequence determined in the extract. Radioimmunoassay was carried out in 0.05M phosphate buffer pH 7.4 in a final volume of 400 ul (see Girgis, S. I. et al J. Endocrinol 78, 372-382). Antiserum was raised in rabbits, using the known techniques, against Tyr-(CGRP amino acids 25-37)-amide and conjugated to chick ovalbumin (Reichlin, M.1980, Meth.Enzymol 70 159-165) and against ^125 I Tyr-(CGRP amino acids 25-37)-amide tracer.
The tracer was iodinated using the Chloramine T method of Hunter and Greenwood. It can be seen from FIG. 5 that HB101/pCAT-CGRP protein extract displaced the tracer (5000 cpm) using a 1:10000 serum dilution with a displacement curve similar to that of the human CGRP standard (chemically synthesised). No displacement was observed using protein extract which had been previously digested overnight with trypsin (0.5 mg/ml) overnight at 37° C. followed by inactivation of the trypsin with trasylol. […]

[4] = i.v., cumulative doses at 2 min intervals, anaesthetised rat
[5] = i.v., pentobarbitone anaesthetised rat
[6] = isolated atrium, Krebs solution, 34° C.

human CGRP: amidated 37 amino acid human calcitonin gene related peptide, chemically synthesised, Mr 3786
drop in mean arterial pressure ([1]; 1 ug/kilo i.v.): 50 mmHg | increase in heart beat rate ([1]; 1 ug/kilo i.v.): 25-30 b.p.m. | fall in mean arterial pressure (MAP) [1, 4]: dose-dependent fall in MAP | increase in heart rate (HR) [1, 4]: increase in HR; also recorded: small but significant increases in heart rate | dose representing a 50% decrease in blood pressure [1, 5]: 0.28 nmol/kg | time to maximal fall in blood pressure [1, 5]: ≤ 1 min | hypotensive effect after mepyramine and cimetidine pretreatment ([1]; mepyramine 12.4 μmol Kg^-1 s.c. and cimetidine 59.5 μmol Kg^-1 infusion over 30 min): did not significantly alter the hypotensive effect | increase in heart rate after propranolol pretreatment ([1]; propranolol 3.4 μmol Kg^-1 i.v. 5 min before human CGRP): did not prevent the increase in heart rate | time taken for the blood pressure to recover by 50% ([1]; single dose 1 nmol Kg^-1 i.v.): 3.8 ± 0.5 min | arterial pressure after single dose ([1]; single dose 1 nmol Kg^-1 i.v., lowered from 125.0±7.6 mm Hg): 68.3±9.3 mm Hg | force of contraction of right atrium [2, 6]: concentration dependent increases | rate of contraction of right atrium [2, 6]: concentration dependent increases | responses (rate and force) in presence of propranolol or cimetidine ([2]; propranolol 300 nM or cimetidine 100 μM, equilibrated 30 min): did not alter the responses | cross-reaction with the antibody (displacement of tracer) [3]: expected displacement curve

“Also recorded” adds a separate entry of the source.
